How the values were obtained:
human KOP receptor = human KOP receptor (Homo sapiens, UniProt P41145); assay: biochemical
human MOP receptor = human MOP receptor (Homo sapiens, UniProt P35372); assay: biochemical

Chains of the proteins cited; added tags and fusions are not shown. Lines headed by an entry give the natural chain unless they say otherwise; changes in a name come on top.
UniProt P41145: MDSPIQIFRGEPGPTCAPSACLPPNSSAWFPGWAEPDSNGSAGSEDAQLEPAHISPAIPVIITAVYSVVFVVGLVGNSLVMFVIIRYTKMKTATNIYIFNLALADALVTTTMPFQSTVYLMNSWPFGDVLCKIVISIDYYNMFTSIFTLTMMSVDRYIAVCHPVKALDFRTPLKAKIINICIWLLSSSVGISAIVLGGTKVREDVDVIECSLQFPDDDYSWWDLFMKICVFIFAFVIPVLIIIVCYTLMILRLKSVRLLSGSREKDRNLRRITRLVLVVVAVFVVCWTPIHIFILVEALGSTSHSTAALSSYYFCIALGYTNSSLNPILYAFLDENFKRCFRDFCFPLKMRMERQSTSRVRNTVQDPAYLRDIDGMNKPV
UniProt P35372, whole entry: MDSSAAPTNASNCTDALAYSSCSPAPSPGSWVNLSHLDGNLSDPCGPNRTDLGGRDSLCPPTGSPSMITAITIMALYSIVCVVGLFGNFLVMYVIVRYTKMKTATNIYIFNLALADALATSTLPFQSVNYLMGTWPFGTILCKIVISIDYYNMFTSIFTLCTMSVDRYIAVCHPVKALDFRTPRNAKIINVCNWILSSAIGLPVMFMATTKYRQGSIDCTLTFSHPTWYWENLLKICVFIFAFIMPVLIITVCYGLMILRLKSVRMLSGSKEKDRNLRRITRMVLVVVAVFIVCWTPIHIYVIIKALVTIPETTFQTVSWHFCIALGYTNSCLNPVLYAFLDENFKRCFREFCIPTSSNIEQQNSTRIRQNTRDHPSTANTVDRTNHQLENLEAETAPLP

## CC(C)C[C@H](NC(=O)[C@H](CCCCN)NC(=O)[C@H](CCCN=C(N)N)NC(=O)[C@H](C)NC(=O)[C@H](CO)NC(=O)[C@H](CCCCN)NC(=O)[C@H](CCCN=C(N)N)NC(=O)[C@H](C)NC(=O)CNC(=O)[C@@H](NC(=O)[C@H](Cc1ccccc1)NC(=O)CNC(=O)CNC(=O)[C@@H](N)Cc1ccccc1)[C@@H](C)O)C(=O)N[C@@H](C)C(=O)N[C@@H](CC(N)=O)C(=O)N[C@@H](CCC(N)=O)C(=O)O [N/OFQ]
Human KOP receptor
  EC50: > 10 µM
Human MOP receptor
  EC50: > 10 µM

— article PMC5785446 (Alcoholism, clinical and experimental research, 2018)
